Experimental data published in article PMC8482766 (Journal of Medicinal Chemistry, 2021).

Legend:
[1] = target: T1, DYRK1A (Homo sapiens, UniProt Q13627); test: biochemical; type: binding; details: read-out: ka
[2] = target: T1, DYRK1A; type: binding

| kon [1] [M⁻¹ s⁻¹] | LE ([2]; LE = 1.4(pIC50)/nonhydrogen atoms) | LLE ([2]; LLE = pIC50 – clog P) | fold reduction in DYRK1A binding affinity ([2]; relative to reference compound/matched-molecular pair 11) [fold] | Structure (SMILES) |
| --- | --- | --- | --- | --- |
| 3.9e+06 |  |  |  | c1cnn2ncc(-c3ccnc(N4CCC45COC5)n3)c2c1 [Compound 22, 1-(4-Pyrazolo[1,5-b]pyridazin-3-yl-pyrimidin-2-yl)-6-oxa-1-azaspiro[3.3]heptane] |
| 6e+06 |  |  |  | CNc1nccc(-c2cnn3ncccc23)n1 [Compound 10] |
| 6.3e+06 |  |  |  | CN(c1nccc(-c2cnn3ncccc23)n1)C1CC1 [Compound 12, N-Cyclopropyl-N-methyl-4-pyrazolo[1,5-b]pyridazin-3-yl-pyrimidin-2-amine] |
| 7.3e+06 |  |  |  | Nc1nccc(-c2cnn3ncccc23)n1 [Compound 9] |
| 4.7e+06 |  |  |  | CN(C)c1ncc(F)c(-c2cnn3ncccc23)n1 [Compound 95, 5-Fluoro-N,N-dimethyl-4-pyrazolo[1,5-b]pyridazin-3-yl-pyrimidin-2-amine] |
| 2.9e+06 | 0.52 | 4.86 | > 2 | CN(C)c1ncnc(-c2cnn3ncccc23)n1 [Compound 109] |
| 1.6e+06 |  |  |  | CN(C)c1ncc(Cl)c(-c2cnn3ncccc23)n1 [Compound 105] |
